For three molecules, Kd results are on record in PMC3923297, “Structural basis for microtubule recognition by the human kinetochore Ska complex” (Nature Communications, 2014).

The chains behind the UniProt entries cited, without tags or fusion partners.
UniProt P81947, whole entry, chain 1 of 2: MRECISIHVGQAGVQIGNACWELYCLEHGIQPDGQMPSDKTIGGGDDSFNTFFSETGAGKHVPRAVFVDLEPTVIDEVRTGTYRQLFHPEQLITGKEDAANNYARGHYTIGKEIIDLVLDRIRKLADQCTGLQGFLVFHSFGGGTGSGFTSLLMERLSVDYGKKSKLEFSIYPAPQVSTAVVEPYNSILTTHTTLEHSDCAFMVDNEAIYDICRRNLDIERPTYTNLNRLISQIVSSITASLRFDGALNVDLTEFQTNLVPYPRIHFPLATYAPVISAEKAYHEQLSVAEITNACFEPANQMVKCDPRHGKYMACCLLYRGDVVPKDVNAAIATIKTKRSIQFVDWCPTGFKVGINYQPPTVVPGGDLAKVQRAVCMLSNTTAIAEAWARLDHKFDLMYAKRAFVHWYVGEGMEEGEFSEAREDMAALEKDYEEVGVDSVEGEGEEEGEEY
microtubules polymerised from tubulin (α1B and β2B tubulin), UniProt Q6B856, whole entry, chain 2 of 2: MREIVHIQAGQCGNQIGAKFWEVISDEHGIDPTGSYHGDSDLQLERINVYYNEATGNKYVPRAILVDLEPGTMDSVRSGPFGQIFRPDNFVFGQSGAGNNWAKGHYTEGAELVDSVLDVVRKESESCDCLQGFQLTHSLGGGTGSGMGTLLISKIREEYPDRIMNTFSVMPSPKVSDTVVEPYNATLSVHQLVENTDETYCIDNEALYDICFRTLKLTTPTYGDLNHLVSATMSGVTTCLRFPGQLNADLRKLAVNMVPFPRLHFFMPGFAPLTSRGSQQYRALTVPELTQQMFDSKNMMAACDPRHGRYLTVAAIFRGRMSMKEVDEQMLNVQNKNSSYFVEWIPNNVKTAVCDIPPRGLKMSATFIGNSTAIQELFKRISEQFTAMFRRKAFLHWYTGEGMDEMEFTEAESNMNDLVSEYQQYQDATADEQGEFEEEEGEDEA

To fix the notation:
B1: Ska complex with Ska1 K183/184/203/206A (complex, human)
chain 1: MASSDLEQLCSHVNEKIGNIKKTLSLRNCGQEPTLKTVLNKIGDEIIVINELLNKLELEIQYQEQTNNSLKELCESLEEDYKDIEHLKENVPSHLPQVTVTQSCVKGSDLDPEEPIKVEEPEPVKKPPKEQRSIKEMPFITCDEFNGVPSYMKSRLTYNQINDVIKEINKAVISKYKILHQPAASMNSVTRNLYHRFIDEETADTAGRYFIVEADIKEFTTLKADKKFHVLLNILRHCRRLSEVRGGGLTRYVIT
chain 2: MEAEVDKLELMFQKAESDLDYIQYRLEYEIKTNHPDSASEKNPVTLLKELSVIKSRYQTLYARFKPVAVEQKESKSRICATVKKTMNMIQKLQKQTDLELSPLTKEEKTAAEQFKFHMPDL
chain 3: MDPIRSFCGKLRSLASTLDCETARLQRALDGEESDFEDYPMRILYDLHSEVQTLKDDINILLDKARLENQEGIDFIKATKVLMEKNSMDIMKIREYFQKYGYSPRVKKNSVHEQEAINSDPELSNCENFQKTDVKDDLSDPPVASSCISEKSPRSPQLSDFGLERYIVSQVLPNPPQAVNNYKEEPVIVTPPTKQSLVKVLKTPKCALKMDDFECVTPKLEHFGISEYTMCLNEDYTMGLKNARNNKSEEAIDTESRLNDNVFATPSPIIQQLEKSDAEYTNSPLVPTFCTPGLKIPSTKNSIALVSTNYPLSKTNSSSNDLEVEDRTSLVLNSDTCFENLTDPSSPTISSYENLLRTPTPPEVTKIPEDILQLLSKYNSNLATPIAIKAVPPSKRFLKHGQNIRDVSNKEN
B2: Ska complex with Ska1 K217/223/226/227A (complex, human)
chain 1: B1 chain 1 with A183K, A184K, A203K, A206K, K217A, K223A, K226A, K227A
chain 2: B1 chain 2
chain 3: B1 chain 3
B3: Ska complex with Ska1 R155/236/245A (complex, human)
chain 1: B1 chain 1 with R155A, A183K, A184K, A203K, A206K, R236A, R245A
chain 2: B1 chain 2
chain 3: B1 chain 3

Residue numbers refer to the chain shown, from its start.

In the test the target is T1, microtubules polymerised from tubulin (α1B and β2B tubulin) (UniProt P81947 1-451; Q6B856 1-445).
T1 construct: α-tubulin, printed as α1B tubulin; β-tubulin, printed as β2B tubulin; Polymer of α/β-tubulin dimers; The same tubulin stood as taxol-stabilized (straight) MTs and as vinblastine spirals (curved); the assay tells them apart; brain tubulin is a mix of isotypes; also called MTs; taxol-stabilized MTs; source: bought: Cytoskeleton Inc. (tubulin), polymerised; taxol-stabilized MTs or vinblastine spirals
Nature of the test: co-sedimentation; MT-pelleting assay: taxol-stabilized MTs or subtilisin-treated MTs (0-12 μM tubulin dimer) with 1 or 3 μM protein, 10 min at room temperature, BRB80 (80 mM PIPES pH 6.9, 1 mM EGTA, 1 mM MgCl2) with 100 mM NaCl, 4 mM DTT, 20 μM taxol; spun through a glycerol cushion, 25 °C; SDS-PAGE, Coomassie, ImageJ. Kd: 1 μM Ska and 0-12 μM MTs; single points: 3 μM Ska (or 1 μM) and 6 μM MTs. To be noted: both partners purified.
Turning to B1, the equilibrium dissociation constant (Kd) worked out at 17.1 ± 5.5 µM.
Take B2: binding was put at a Kd of 14.5 ± 2.8 µM.
Next, B3: 20 ± 4.5 µM.

As usually defined, the Kd is the free concentration of one partner at which half of the binding sites on the other are occupied at equilibrium, for simple one-to-one binding. A low value points to higher affinity.
